“And” between values parts separate entries of the source, which are not always exact repeats. Identical values can stand only once. For some of these results: Most of the hits are listed elsewhere, so they are rarer here than in the full data. Records with an inconclusive call do not appear. Only a part is listed here, and it is no random draw. Where a structure was tested more than once in an assay, its records may differ in their call. The source made the active and inactive calls. Unless noted, calls follow the shape of the dose curve; as a rule, active = well fitted curve in the direction sought with a large enough effect in the repeat runs; inconclusive = weak or mixed curves; inactive = no such curve, though single readings can be large; an effect the other way counts as inactive or inconclusive.
Columns and labels:
[1] = qHTS assay to identify small molecule antagonists of the retinoic acid receptor (RAR) signaling pathway (AID 1159552; also: nearly all actives have a fitted effect of over 50% in size; also: potency is read from the fitted curve at half-maximal effect)
Procedure, shortened: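 Luminescence from a RARE luciferase reporter in C3RL4 cells served as read-out. Cells received compounds together with 1 uM final retinol and incubated 6 hr at 37 C before detection reagent was added for 30 min at room temperature.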

Chains of the proteins cited; added tags and fusions are not shown. Lines headed by an entry give the natural chain unless they say otherwise; changes in a name come on top.
UniProt P03372, whole entry, looked up: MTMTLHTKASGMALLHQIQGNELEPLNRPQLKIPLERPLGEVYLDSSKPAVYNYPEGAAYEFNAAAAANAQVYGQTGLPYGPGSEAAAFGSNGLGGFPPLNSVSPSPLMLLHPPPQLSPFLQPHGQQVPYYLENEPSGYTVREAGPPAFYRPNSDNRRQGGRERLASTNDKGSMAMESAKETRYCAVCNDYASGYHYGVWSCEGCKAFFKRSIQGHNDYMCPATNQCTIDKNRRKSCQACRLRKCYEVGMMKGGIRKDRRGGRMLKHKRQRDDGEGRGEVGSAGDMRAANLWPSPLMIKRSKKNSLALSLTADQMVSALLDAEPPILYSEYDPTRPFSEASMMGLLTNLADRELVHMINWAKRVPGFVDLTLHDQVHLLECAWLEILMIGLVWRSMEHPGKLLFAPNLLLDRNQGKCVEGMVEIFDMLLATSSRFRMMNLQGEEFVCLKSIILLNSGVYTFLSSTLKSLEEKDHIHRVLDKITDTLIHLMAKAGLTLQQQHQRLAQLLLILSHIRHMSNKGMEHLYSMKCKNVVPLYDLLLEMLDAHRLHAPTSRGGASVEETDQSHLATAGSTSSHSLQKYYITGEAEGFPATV
UniProt Q96RI1: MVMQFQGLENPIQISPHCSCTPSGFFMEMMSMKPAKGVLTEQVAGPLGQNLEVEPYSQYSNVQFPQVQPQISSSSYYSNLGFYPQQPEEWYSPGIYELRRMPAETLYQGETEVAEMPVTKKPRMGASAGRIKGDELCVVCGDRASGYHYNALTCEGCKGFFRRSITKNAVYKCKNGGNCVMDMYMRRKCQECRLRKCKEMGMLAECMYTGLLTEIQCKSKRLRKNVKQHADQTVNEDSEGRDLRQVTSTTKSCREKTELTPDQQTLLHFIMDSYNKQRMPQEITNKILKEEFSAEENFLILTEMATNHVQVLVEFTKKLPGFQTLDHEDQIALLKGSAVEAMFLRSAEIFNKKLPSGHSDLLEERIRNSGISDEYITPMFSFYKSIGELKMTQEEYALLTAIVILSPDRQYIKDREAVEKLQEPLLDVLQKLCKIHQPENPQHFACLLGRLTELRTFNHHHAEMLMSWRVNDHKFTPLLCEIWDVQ
UniProt Q92731, whole entry, looked up: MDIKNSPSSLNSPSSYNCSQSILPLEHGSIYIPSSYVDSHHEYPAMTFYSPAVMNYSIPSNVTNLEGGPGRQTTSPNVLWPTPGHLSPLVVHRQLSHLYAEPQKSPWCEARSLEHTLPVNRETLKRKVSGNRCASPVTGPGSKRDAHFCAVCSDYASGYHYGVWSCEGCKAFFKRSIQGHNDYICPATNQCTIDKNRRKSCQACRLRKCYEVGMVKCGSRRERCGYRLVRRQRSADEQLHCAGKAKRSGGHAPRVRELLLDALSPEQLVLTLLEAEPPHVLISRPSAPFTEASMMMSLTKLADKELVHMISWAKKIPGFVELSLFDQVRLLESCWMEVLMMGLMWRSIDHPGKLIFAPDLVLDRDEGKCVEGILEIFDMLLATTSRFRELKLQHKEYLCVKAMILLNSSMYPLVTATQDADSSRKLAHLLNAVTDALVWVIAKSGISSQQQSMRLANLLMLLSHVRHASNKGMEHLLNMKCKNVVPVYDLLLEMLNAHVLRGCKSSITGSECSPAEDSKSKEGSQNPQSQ
UniProt P10275: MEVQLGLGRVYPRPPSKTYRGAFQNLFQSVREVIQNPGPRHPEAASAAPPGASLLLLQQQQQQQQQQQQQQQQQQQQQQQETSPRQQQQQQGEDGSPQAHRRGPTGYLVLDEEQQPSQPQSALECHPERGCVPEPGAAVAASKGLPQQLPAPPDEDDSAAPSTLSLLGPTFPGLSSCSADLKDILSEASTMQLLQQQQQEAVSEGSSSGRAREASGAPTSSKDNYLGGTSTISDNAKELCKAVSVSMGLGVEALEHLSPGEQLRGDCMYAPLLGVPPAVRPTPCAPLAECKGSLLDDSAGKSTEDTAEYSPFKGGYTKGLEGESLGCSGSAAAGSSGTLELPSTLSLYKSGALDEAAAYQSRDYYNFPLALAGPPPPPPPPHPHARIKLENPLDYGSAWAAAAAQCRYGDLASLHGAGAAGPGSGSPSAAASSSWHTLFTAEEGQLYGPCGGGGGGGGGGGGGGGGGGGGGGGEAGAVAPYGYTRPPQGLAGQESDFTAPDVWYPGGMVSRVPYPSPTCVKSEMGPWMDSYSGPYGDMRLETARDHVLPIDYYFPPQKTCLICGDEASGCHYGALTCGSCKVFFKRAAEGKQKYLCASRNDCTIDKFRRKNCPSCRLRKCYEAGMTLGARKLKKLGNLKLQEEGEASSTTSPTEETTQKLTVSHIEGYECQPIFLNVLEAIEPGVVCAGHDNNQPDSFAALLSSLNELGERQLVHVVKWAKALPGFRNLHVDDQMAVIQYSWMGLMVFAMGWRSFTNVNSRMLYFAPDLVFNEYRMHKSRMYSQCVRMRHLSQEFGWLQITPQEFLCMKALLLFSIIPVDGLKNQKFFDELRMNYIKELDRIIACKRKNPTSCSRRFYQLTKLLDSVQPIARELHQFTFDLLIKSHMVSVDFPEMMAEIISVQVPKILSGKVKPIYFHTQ

[2] = qHTS assay to identify small molecule agonists of the NFkB signaling pathway (AID 1159509; active = well fitted curve in the direction sought with a large enough effect in the signal ratio in the repeat runs, not every such curve was filed as active; the % refers to the signal ratio); details: NFkB-bla ME-180 cells, beta-lactamase FRET ratio, 5 h
Procedure, shortened: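 Readout: FRET fluorescence, 405 nm excitation, 460/530 nm emission; beta-lactamase expression disrupts FRET. Cells: ME-180 stably carrying NF-kB-driven bla reporter. Compound exposure 5 hr, 37 C, 5% CO2.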

[3] = target: Estrogen receptor (Homo sapiens) (UniProt P03372); experiment: qHTS assay to identify small molecule antagonists of the estrogen receptor alpha (ER-alpha) signaling pathway (AID 743069; active = well fitted curve in the direction sought with a large enough effect in the signal ratio in the repeat runs, not every such curve was filed as active; the % refers to the signal ratio); details: HEK293 ER-alpha-UAS-bla, beta-lactamase ratio, antagonist mode; at 69.4 µM (top of the series)
[4] = target: Estrogen receptor (Homo sapiens) (UniProt P03372); experiment: qHTS assay to identify small molecule agonists of the estrogen receptor alpha (ER-alpha) signaling pathway (AID 743075; calls by dose curve)
[5] = target: Estrogen receptor (Homo sapiens) (UniProt P03372); experiment: qHTS assay to identify small molecule agonists of the estrogen receptor alpha (ER-alpha) signaling pathway using the BG1 cell line (AID 743079); details: BG1Luc4E2 cells, ERE-luciferase agonist, 22 h; at 70.3 µM (top of the series); also: nearly all actives have a fitted effect of over 20% in size
[6] = target: Bile acid receptor (Homo sapiens) (UniProt Q96RI1); experiment: qHTS assay to identify small molecule antagonists of the farnesoid-X-receptor (FXR) signaling pathway (AID 743217; active = well fitted inhibition curve with a large enough effect in the signal ratio in the repeat runs, not every such curve was filed as active; the % refers to the signal ratio); details: HEK293T FXR-UAS-bla, beta-lactamase ratio, CDCA-stimulated, 16 h; at 81.1 µM (top of the series) unless noted
Procedure, shortened: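 Read-out: beta-lactamase FRET fluorescence (LiveBLAzer B/G substrate, 2 h, room temperature) in GeneBLAzer FXR-UAS-bla HEK 293T cells. Compounds were co-dosed with 50 uM chenodeoxycholic acid (final) and incubated 16 h at 37 °C.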

[7] = target: Bile acid receptor (Homo sapiens) (UniProt Q96RI1); experiment: qHTS assay to identify small molecule agonists of the farnesoid-X-receptor (FXR) signaling pathway (AID 743220; active = well fitted activation curve with a large enough effect in the signal ratio in the repeat runs, not every such curve was filed as active; the % refers to the signal ratio); details: HEK293T FXR-UAS-bla, beta-lactamase FRET ratio, 16 h; at 62.6 µM (top of the series) unless noted
[8] = target: Estrogen receptor (Homo sapiens) (UniProt P03372); experiment: qHTS assay to identify small molecule antagonists of the estrogen receptor alpha (ER-alpha) signaling pathway using the BG1 cell line in the presence of 0.1 nM 17-beta-estradiol (AID 1259244); also: nearly all actives have a fitted effect of over 50% in size; also: potency is read from the fitted curve at half-maximal effect
[9] = target: Estrogen receptor beta (Homo sapiens) (UniProt Q92731); experiment: qHTS assay to identify small molecule antagonists of the estrogen receptor beta (ER-beta) signaling pathway (AID 1259378; active = well fitted inhibition curve with a large enough effect in the signal ratio in the repeat runs, not every such curve was filed as active; the % refers to the signal ratio)
Procedure, shortened: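 ER-beta-UAS-bla HEK293T (GripTite) cells in 2% charcoal-stripped FBS medium were preincubated 6 hr at 37C, dosed with compound, then stimulated with 1 nM E2 (final) for 16 hr; beta-lactamase reporter read by B/G FRET fluorescence after 2 hr substrate loading.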

[10] = target: Estrogen receptor (Homo sapiens) (UniProt P03372); experiment: qHTS assay to identify small molecule agonists of the estrogen receptor alpha (ER-alpha) signaling pathway in the presence of an antagonist (AID 1259383; calls by dose curve; also: top concentration of the series differs between compounds; nearly all actives have a fitted effect of over 15% in size); details: VM7Luc4E2 cells, ERE-luciferase, +ICI-182,780, 22 h
[11] = target: Androgen receptor (Homo sapiens) (UniProt P10275); experiment: qHTS assay to identify small molecule antagonists of the androgen receptor (AR) signaling pathway (AID 743035; active = well fitted inhibition curve with a large enough effect in the signal ratio in the repeat runs, not every such curve was filed as active; the % refers to the signal ratio)
[12] = target: Androgen receptor (Homo sapiens) (UniProt P10275); experiment: qHTS assay to identify small molecule agonists of the androgen receptor (AR) signaling pathway using the MDA cell line (AID 743040; also: nearly all actives have a fitted effect of over 20% in size); details: MDA-kb2 AR-luc cells, MMTV luciferase, 16 h, stronger effect = higher value; at 70.3 µM (top of the series) unless noted
[13] = target: Androgen receptor (Homo sapiens) (UniProt P10275); experiment: qHTS assay to identify small molecule antagonists of the androgen receptor (AR) signaling pathway using the MDA cell line (AID 743042; also: nearly all actives have a fitted effect of over 55% in size)
[14] = target: Androgen receptor (Homo sapiens) (UniProt P10275); experiment: qHTS assay to identify small molecule antagonists of the androgen receptor (AR) signaling pathway using the MDA cell line in the presence of 0.5 nM R1881 (AID 1259243); also: nearly all actives have a fitted effect of over 50% in size
[15] = target: Androgen receptor (Homo sapiens) (UniProt P10275); experiment: qHTS assay to identify small molecule agonists of the androgen receptor (AR) signaling pathway in the presence of an antagonist (AID 1259381; calls by dose curve; also: nearly all actives have a fitted effect of over 15% in size); details: MDA-kb2 MMTV-luciferase, AR agonist + nilutamide, 16 h; at 42.5 µM (top of the series)
% is scaled to controls: 0 for no effect and ±100 for the full control effect.

CCCC[n+]1ccc(C)cc1
Potency [1]: inactive and active: 54.2 µM

C[N+](C)(C)CCOC(=O)C(O)(c1ccccc1)c1ccccc1
activation ([2]; at 61 µM (top of the series)): inactive: 0.175%
Potency [1]: inactive

C[N+](C)(C)CCCCCCCCCC[N+](C)(C)C
Potency [1]: inactive

CN1CC[C@]23c4c5ccc(O)c4O[C@H]2[C@@H](O)C=C[C@H]3[C@H]1C5
activity, negative = inhibition [3]: inactive: -11.9%
Potency [4]: inactive
activation [5]: inactive: -5.26%
activity change, negative = inhibition [6]: inactive: -3.9%
activation [7]: inactive: -3.29% [at 81.1 µM]
Potency [1]: inactive
Potency [8]: inactive
Potency [9]: inactive
activation ([10]; at 92.4 µM (top of the series)): inactive: -0.707%

CC[N+]1(CC)CCC(OC(=O)C(O)(c2ccccc2)c2ccccc2)C1 (centres undefined)
activation ([2]; at 61 µM (top of the series)): inactive: -0.05%
Potency [1]: inactive
Potency [9]: inactive

CC[n+]1ccccc1
activity, negative = inhibition [3]: inactive: -2.52% [middle of 4 runs]
Potency [4]: inactive
activation ([2]; at 61 µM (top of the series)): inactive: -0.378% [middle of 5 runs]
Potency [1]: inactive and active: 54 µM
Potency [8]: inactive and active: 8.56 µM
activation ([10]; at 92.4 µM (top of the series)): inactive: 0.317% [middle of 5 runs]

CCCCCCCCCCCCCCCC[N+](C)(C)C
activation ([2]; at 61 µM (top of the series)): inactive: -0.0451%

CC[N+]1(C)CCCC(OC(=O)C(O)(c2ccccc2)c2ccccc2)C1 (centres undefined)
activation ([2]; at 61 µM (top of the series)): inactive: 0.0776%
Potency [1]: inactive

C[C@H](CN1CCOCC1)C(C(=O)N1CCCC1)(c1ccccc1)c1ccccc1
Potency [1]: inactive

CCCC[N+]1(C)[C@@H]2CC(OC(=O)[C@H](CO)c3ccccc3)C[C@H]1[C@@H]1O[C@@H]12 (some centres undefined)
Potency [11]: inactive
activity change [12]: inactive: -2.6%
Potency [13]: inactive
activation ([2]; at 61 µM (top of the series)): inactive: 0.379%
Potency [14]: inactive
Potency [9]: inactive
activation [15]: inactive: -0.239%

CCCC[n+]1ccccc1
Potency [1]: inactive

C[N+]12CCC(CC1)C(OC(=O)C(O)(c1ccccc1)c1ccccc1)C2 (centres undefined)
Potency [1]: inactive

COc1c2c(cc3c1OCO3)CCN(C)C2
activation ([2]; at 61 µM (top of the series)): inactive: 0.364%
Potency [1]: inactive
Potency [9]: inactive

CCCC[N+](CCCC)(CCCC)CCCC
activation ([2]; at 61 µM (top of the series)): inactive: -0.723%
Potency [1]: inactive
Potency [9]: inactive

COc1ccc(N)cc1N
activation [5]: inactive: -8.89%
activation ([2]; at 61 µM (top of the series)): inactive: 0.126%
activation ([2]; at 78.8 µM (top of the series)): inactive: 0.257%
Potency [1]: active: 31.6 µM and inactive
activation ([10]; at 42.5 µM (top of the series)): inactive: 0.305%
activation ([10]; at 92.4 µM (top of the series)): inactive: -13.5%

O=C1C[C@@H]2OCC=C3CN4CC[C@]56c7ccccc7N1[C@H]5[C@H]2[C@H]3C[C@H]46
activation ([2]; at 61 µM (top of the series)): inactive: 0.497%

CCCCCCCCCCCCCCCC[n+]1ccccc1
Potency [1]: active: 21.4 µM [middle of 4 runs]
